Data on 1 compound can be found in US8058008B2, “Method for extracting quantitative information relating to an influence on a cellular response” (Fisher Bioimage APS, priority 1997, dated 2011).

The subject of the assay is PKCα-F64L-S65T-GFP fusion. Conditions: carbachol stimulation of M1-BHK cells.

Regarding `C[N+](C)(C)CCOC(N)=O` [carbachol], the “translocation of PKCα-F64L-S65T-GFP” value is given as “dose-dependent transient translocation from the cytoplasm to the plasma membrane”.
